These are literature values, as cited in patent EP2456327B1, “A PROCESS FOR PRODUCING WATER ENRICHED WITH NATURAL OR[…], STILL WATER OBTAINED BY THE SAID PROCESS, COSMETIC AND THERAPEUTIC USE OF SAID WATER” (SOCIETE ANONYME DES EAUX MINERALES D'EVIAN, "S.A.E.M.E", priority 2009, dated 2011).

Read-outs that look alike come from different tables or passages of the source.

Broadly, the solubility is how much of the substance goes into solution per volume.

The conditions of data set [1]: Martin, The Journal of Nutrition, Health & Aging, 2007.

Consider orthosilicic acid, for which the solubility reads like this: (4°C and same pH (7.0)) 85 µg/mL; (20°C and a pH of 7.0) 115 µg/mL. The solubility in water result (25°C and neutral pH, expressed in milligrams of SiO2 per liter of water) was “around 120 mg/l”. Besides, the “absorbed, of the total ingested amount” value in data set [1] is reported as > 50%.
